Test results: paper PMC7875603 (Journal of medicinal chemistry, 2019)

Chains of the proteins cited; added tags and fusions are not shown.
UniProt Q8R431, whole entry: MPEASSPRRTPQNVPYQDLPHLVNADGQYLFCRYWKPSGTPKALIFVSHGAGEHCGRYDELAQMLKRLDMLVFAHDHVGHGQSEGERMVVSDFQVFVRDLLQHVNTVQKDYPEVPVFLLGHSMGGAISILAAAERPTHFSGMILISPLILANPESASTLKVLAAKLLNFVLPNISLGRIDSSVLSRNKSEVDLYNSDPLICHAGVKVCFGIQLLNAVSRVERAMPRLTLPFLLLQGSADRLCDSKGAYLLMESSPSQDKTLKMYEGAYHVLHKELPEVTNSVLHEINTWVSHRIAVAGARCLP

Molecular target: monoacylglycerol lipase (MAGL) (Rattus norvegicus, UniProt Q8R431)
Experiment: cell-based
Conditions: read-out: % reduction of bound activity at 10 μM

inhibition at 10 µM: 35 to 49%
Compound: O=C(OC(C(F)(F)F)C(F)(F)F)N1CCC(C(O)(c2ccc3c(c2)OCO3)c2ccc3c(c2)OCO3)CC1 [KML29]
